Here are results for 100 molecules from PubChem BioAssay AID492953 (The Scripps Research Institute Molecular Screening Center, 2010).

Amino acid sequences for entries named in this document (tags omitted). A change or cut given only in a name is not applied to a line headed by its entry.
UniProt P68402: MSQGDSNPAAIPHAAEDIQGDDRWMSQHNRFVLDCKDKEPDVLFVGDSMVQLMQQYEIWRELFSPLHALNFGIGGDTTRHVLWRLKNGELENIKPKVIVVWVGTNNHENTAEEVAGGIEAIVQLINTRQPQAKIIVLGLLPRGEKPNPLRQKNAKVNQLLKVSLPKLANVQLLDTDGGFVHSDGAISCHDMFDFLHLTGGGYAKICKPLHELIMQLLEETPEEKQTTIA

This is a selection; strong and weak results do not stand in their true shares. Active and inactive are the calls of the source.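 How the source made its calls: active means inhibition above the mean of all tested compounds plus 3 SD (cut at about 24% in these data); inactive means the rest.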

The target in the experiment is Platelet-activating factor acetylhydrolase IB subunit alpha2 (Homo sapiens) (UniProt P68402). Briefly: inhibition of PAF acetylhydrolase 1b subunit 2 – biochemical, fluorescence polarization, human, primary screen (AID 492953).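 Further: 0% = enzyme with DMSO and 100% = wells lacking PAFAH1B2.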 The conditions noted are these: recombinant PAFAH1B2, FP-rhodamine activity probe, at 3.39 µM, stronger effect = higher value. On the technique in general: Polarisation of emitted light reports the rotation of a fluorescent probe.
For orientation: inhibition means the relative decrease from the control value, in per cent. `CC1(CBr)Cn2c(nc3ccccc3c2=O)S1` (stereo not given): the inhibition was inactive: 7.58%.
With `CN(C(=O)Cc1ccc(Cl)c(Cl)c1)[C@@H]1CCCC[C@H]1N1CCCC1`, the inhibition is inactive: 6.74%.
As for `CC(C)/C=N\N=C(\N)N[N+](=O)[O-]`, the inhibition is inactive: 3.89%.
Take `COc1ccccc1CNC(=O)COC(=O)C(O)(c1ccccc1)c1ccccc1`: the inhibition is inactive: -1.54%.
In the case of `Clc1n[nH]nc1-c1nn[nH][15n]1`, the inhibition was inactive: 4.53%.
In the case of `CC(C)(C)C(=O)NC(Sc1ncccn1)C(Cl)(Cl)Cl` (stereo not given), the inhibition is inactive: 4.36%.
Consider `CCOP(=O)(Nc1ccc(C)cn1)OCC`, for which the inhibition is inactive: 5.13%.
Consider `CCC1=CC2Cc3nc4ccc(Cl)cc4c(N)c3C(C1)C2` (stereo not given), for which the inhibition was inactive: -1.24%.
Regarding `O=P1(Nc2ccccn2)COc2ccccc2OC1`, the inhibition was inactive: -2.15%.
With `CCOP(=O)(NC(=NC(C)c1ccccc1)NC(C)c1ccccc1)OCC` (stereo not given), the inhibition is inactive: 4.29%.
As for `NS(=O)(=O)c1cccc(NC(=O)COC(=O)C(O)(c2ccccc2)c2ccccc2)c1`, the inhibition was inactive: -1.86%.
As to `O=P1(Nc2ccc(Br)cn2)COc2ccccc2OC1`, the inhibition is inactive: 1.24%.
As for `O=[As](O)(c1cccs1)c1cccs1`, the inhibition is inactive: 0.37%.
For `Cc1ccc(OCC(=O)OC2CN3CCC2CC3)cc1` (stereo not given), the inhibition was inactive: 0.09%.
As to `Nc1cccc([As](=O)(O)c2ccccc2)c1`, the inhibition is inactive: 2.1%.
On to `O=P1(Nc2ncccn2)COc2ccccc2OC1`, for which the inhibition is inactive: 6.84%.
In the case of `O=C(/C=C/c1ccccc1)OC1CN2CCC1CC2` (stereo not given), the inhibition was inactive: 4.1%.
For the molecule `CCCC1OP(=O)(Nc2ccccc2)OCC1CC` (stereo not given), the inhibition was inactive: 6.44%.
For `CN(C)C1(CNC(=O)c2ccc(S(C)(=O)=O)cc2)CCCCC1`, the inhibition is inactive: -4.19%.
Consider `Cc1nn(-c2ccccc2)c2c1P(=O)(N1CCOCC1)N(C)C(c1ccccc1)=N2` (stereo not given), for which the inhibition was inactive: 9.57%.
For the molecule `Cc1ccc(C(=O)OC2CN3CCC2CC3)cc1` (stereo not given), the inhibition was inactive: 0.5%.
Consider `CC1CCC(C(C)C)C(OP(=O)(Nc2ccccn2)c2ccccc2)C1` (stereo not given), for which the inhibition was inactive: 20.1%.
In the case of `CN(C)C(=O)c1cc([N+](=O)[O-])cc2c1-c1c(cc([N+](=O)[O-])cc1[N+](=O)[O-])C2=O`, the inhibition is inactive: 22.1%.
Regarding `O=[N+]([O-])c1ccc2c(c1)nnn2O`, the inhibition was inactive: 2.79%.
As for `CN(C(=O)Cc1ccc(Cl)c(Cl)c1)[C@H]1CC[C@@]2(CCCO2)C[C@@H]1N1CCCC1`, the inhibition is inactive: 3.02%.
For the molecule `N#CCCN(C(=O)COC(=O)C(O)(c1ccccc1)c1ccccc1)c1ccc(F)cc1`, the inhibition was inactive: 0.16%.
For `CCOP1(=S)c2c(C)nn(CCC#N)c2N=C(c2ccc(F)cc2)N1C` (stereo not given), the inhibition was inactive: -4.27%.
As for `CN(C(=O)Cc1ccccc1)[C@@H]1CC[C@]2(CCCO2)C[C@H]1N1CCCC1`, the inhibition is inactive: 3.83%.
Turning to `NC(=O)Nc1ccc([As](=O)(O)O)cc1`, the inhibition is inactive: -2.58%.
Consider `O=C(O)COc1ccc([As](=O)(O)O)cc1[N+](=O)[O-]`, for which the inhibition was inactive: 1.75%.
`Nc1ccccc1[As](=O)(O)c1ccccc1`: the inhibition was inactive: 1.11%.
Consider `CS(=O)(=O)c1cc([N+](=O)[O-])c2no[n+]([O-])c2c1`, for which the inhibition was inactive: 12.2%.
Take `CCOP1(=S)c2c(C)nn(CCC#N)c2N=C(c2ccccc2F)N1C` (stereo not given): the inhibition is inactive: 7.41%.
Turning to `O=P(Nc1nccs1)(c1ccccc1)c1nc2ccccc2s1` (stereo not given), the inhibition was inactive: -1.03%.
Take `O=P(Nc1nccs1)(Oc1ccccc1)Oc1ccccc1`: the inhibition is inactive: 2.21%.
The figure for `COc1cc(C2NCCC3(OCCO3)C2(C)C)cc(OC)c1OC` (stereo not given) is inactive: -5.67%.
`CCOP(=O)(Nc1cccc2ccccc12)OCC`: the inhibition was inactive: -1.61%.
The figure for `CCCOP(=S)(Nc1nc(N)cc(=O)[nH]1)OCCC` is inactive: 4.1%.
The result for `Nc1cccc2c([As](=O)(O)O)cccc12` reads inactive: 8.33%; that for `Cc1ccc(NCCc2c([N+](=O)[O-])cc([N+](=O)[O-])cc2[N+](=O)[O-])cc1`, inactive: 11.7%; that for `O=[As](O)(c1cccc(O)c1)c1cccc(O)c1`, inactive: 3.24%.
Take `Cc1cccc(OCC(=O)OC2CN3CCC2CC3)c1` (stereo not given): the inhibition is inactive: -1.1%.
With `COc1cc(C(=O)NCC2(N3CCOCC3)CCCCC2)cc(Cl)c1OC(C)C`, the inhibition is inactive: 5.97%.
In the case of `O=[As](O)(O)c1cccnc1`, the inhibition was inactive: 6.17%.
`CS(=O)(=O)c1ccc(Cl)c(NC(=O)COC(=O)C(O)(c2ccccc2)c2ccccc2)c1`: the inhibition is inactive: 2.17%.
The figure for `O=C(OC1CN2CCC1CC2)c1ccc(Cl)cc1` (stereo not given) is inactive: 4.33%; for `COc1ccc(N/C(=N/P(=O)(N2CCOCC2)N2CCOCC2)N2CCOCC2)cc1` it is inactive: 4.93%.
The figure for `O=[N+]([O-])c1cc(Oc2ccc([N+](=O)[O-])cc2C(F)(F)F)cc([N+](=O)[O-])c1` is inactive: 8.64%; for `COc1ccc2nc(NP(=O)(c3ccccc3)c3ccccc3)sc2c1` it is inactive: 4.25%; for `COc1cc(I)ccc1[As](=O)(O)O` it is inactive: 4.49%.
With `O=P1(N(CCCl)CCCl)Nc2ccccc2N1`, the inhibition is inactive: 2.77%.
For the molecule `O=P1(N(CCCl)CCCl)OCCCN1CCCl` (stereo not given), the inhibition is inactive: 2.61%.
As to `O=C(OC1CN2CCC1CC2)C12CC3CC(CC(C3)C1)C2` (stereo not given), the inhibition was inactive: 5.47%.
In the case of `Cc1cc(=O)[nH]c(N[N+](=O)[O-])n1`, the inhibition was inactive: -1.15%.
As for `Cc1c2c(nc3ccccc13)SC(C(Cl)Cl)C2` (stereo not given), the inhibition is inactive: 7.59%.
Turning to `O=C(OC1CN2CCC1CC2)c1cccc2[nH]cnc12` (stereo not given), the inhibition was inactive: -3.13%.
Consider `CCN(CC)C(=S)SC(NC=O)C(Cl)(Cl)Cl` (stereo not given), for which the inhibition was inactive: 3.91%.
Consider `O=[N+]([O-])c1cc([N+](=O)[O-])c(-c2ccn[nH]2)s1`, for which the inhibition was inactive: 2.28%.
For the molecule `CC(C)c1ccc(OP(=O)(Nc2ccccn2)Oc2ccccc2F)cc1` (stereo not given), the inhibition was inactive: -3.11%.
Turning to `COC(=O)C1(C)COP(=O)(N2CCCCCC2)OC1` (stereo not given), the inhibition is inactive: 9.22%.
Regarding `ClCCSc1nnc(-c2cccnc2)o1`, the inhibition is inactive: -3.22%.
In the case of `Cc1ccc2nc3c(c(C)c2c1)CC(C(Cl)Cl)S3` (stereo not given), the inhibition is inactive: 2.3%.
For the molecule `Cc1ccc(OP(=O)(Nc2ccc([N+](=O)[O-])cn2)Oc2ccc(C)cc2)cc1`, the inhibition is inactive: -1.12%.
Take `C[As](=O)(O)c1cccc(C(=O)O)c1`: the inhibition was inactive: -0.69%.
With `O=[As](O)(c1ccc(O)cc1)c1ccccc1O`, the inhibition is inactive: 4.01%.
The result for `COc1cc(C(=O)NCC2(N3CCOCC3)CCCCC2)ccc1OCC(C)C` reads inactive: -0.93%; that for `O=[N+]([O-])c1ccc(-c2cc([N+](=O)[O-])c(O)c([N+](=O)[O-])c2)cc1`, inactive: 5.17%; that for `O=[N+]([O-])c1ccc(Nc2ccc(Oc3ccc([N+](=O)[O-])cc3[N+](=O)[O-])cc2)c([N+](=O)[O-])c1`, inactive: 6.09%.
The figure for `Cc1cc(SC(NC=O)C(Cl)(Cl)Cl)ncn1` (stereo not given) is inactive: -2.2%; for `O=P(Nc1ccccn1)(c1cccc2ccccc12)c1cccc2ccccc12` it is inactive: 6.13%.
With `CCOC(=O)Nc1cccc([As](=O)(O)O)c1`, the inhibition is inactive: -5.8%.
As for `CCCCOc1ccc(C(=O)NCC2(N3CCCCC3)CCCCC2)cc1OC`, the inhibition was inactive: -2.69%.
As to `Cc1cc(SC(NC(=O)c2ccccc2)C(Cl)(Cl)Cl)nc(C(C)C)n1` (stereo not given), the inhibition is inactive: 4.12%.
On to `CC1CCNP(=O)(N(CCCl)CCCl)O1` (stereo not given), for which the inhibition was inactive: 3.09%.
The figure for `CCOC(=O)Nc1ccc([As](=O)(O)O)c(O)c1` is inactive: 4.73%.
As for `CCC(C)N(CC(C)C)C(=S)SC(NC(C)=O)C(Cl)(Cl)Cl` (stereo not given), the inhibition was inactive: 19.3%.
For `CCOC(=O)c1ccc(NC(=O)C(C)(CCl)SC)cc1` (stereo not given), the inhibition was inactive: 7.98%.
The figure for `O=C(OC1CN2CCC1CC2)c1cccc([N+](=O)[O-])c1` (stereo not given) is inactive: 3.83%.
For the molecule `O=C(COc1ccccc1)OC1CN2CCC1CC2` (stereo not given), the inhibition was inactive: 6.21%.
On to `O=C(Nc1ccncc1[N+](=O)[O-])c1ccc([N+](=O)[O-])cc1[N+](=O)[O-]`, for which the inhibition is inactive: 0.02%.
Turning to `COP1(=S)c2c(C)nn(CCC#N)c2N=C(c2ccc(F)cc2)N1C` (stereo not given), the inhibition is inactive: -2.18%.
With `CC(C)=N/N=C(\N)N[N+](=O)[O-]`, the inhibition was inactive: -5.54%.
Consider `CN(C)C(=O)OCCc1n(C)cc[n+]1C`, for which the inhibition was inactive: -0.09%.
In the case of `CC1CCN(C(=O)Oc2c(Cl)cc(Cl)c3cccnc23)CC1`, the inhibition is inactive: 2.65%.
Regarding `Nc1ccc([As](=O)(O)c2ccc(N)cc2)cc1`, the inhibition is inactive: 3.54%.
In the case of `C[N+]1=C2C=CC=CC=C2SC12C([N+](=O)[O-])=CC([N+](=O)[O-])=C[C-]2[N+](=O)[O-]` (stereo not given), the inhibition is inactive: 14.2%.
The result for `CCN(/C(=N/P(=O)(N1CCOCC1)N1CCOCC1)N1CCOCC1)c1ccc(OC)cc1` reads inactive: -3.8%; that for `CC(=O)N1C2C3N(C(C)=O)C1C1N(C(C)=O)C(C(N1C(C)=O)N3C(C)=O)N2C(C)=O`, inactive: 0.18%.
The result for `O=[N+]([O-])c1cccc2n[nH]nc12` reads inactive: 6.87%; that for `Cc1ccc(NP(=O)(Oc2ccccc2)Oc2ccccc2)nc1`, inactive: -0.56%; that for `O=[N+]([O-])c1cc([N+](=O)[O-])c(CCNc2ccccc2)c([N+](=O)[O-])c1`, inactive: 16.3%.
On to `CCc1nc2c(n1)c1c(non1O)c1c2no[n+]1[O-]`, for which the inhibition is inactive: 11.2%.
The figure for `COc1ccc(C2=NCC(CBr)S2)cc1` (stereo not given) is inactive: 0.94%.
With `O=[N+]([O-])c1cccc(NC2=NCC(CBr)S2)c1` (stereo not given), the inhibition was inactive: 4.16%.
Consider `COC(=O)C1(C)COP(=O)(Nc2ccccc2)OC1` (stereo not given), for which the inhibition was inactive: 3.52%.
In the case of `O=C(O)CNc1ccc([As](=O)(O)O)cc1`, the inhibition is inactive: 3.57%.
Take `CC(C)(C)C(=O)NC(Sc1ccncn1)C(Cl)(Cl)Cl` (stereo not given): the inhibition was inactive: 3.13%.
`O=[N+]([O-])c1ncn(CCn2ncnc2[N+](=O)[O-])n1`: the inhibition was inactive: -3.36%.
For the molecule `O=C(Nc1cc([As](=O)(O)O)ccc1O)c1ccccc1`, the inhibition was inactive: 5.87%.
As for `O=P1(N(CCCl)CCCl)OCCCS1` (stereo not given), the inhibition is inactive: 6.31%.
